According to ChEMBL document CHEMBL1123302, “Antagonists of substance P. Further modifications of substance P antagonists obtained by replacing either positions 7, 9 or 7, 8 and 11 of SP with D-amino acid residues” (J Med Chem, 1986):

Columns and labels:
[1] = tested on: muscarinic acetylcholine receptor (Rattus norvegicus); test: Antagonistic activity against Carbachol receptor in rat spinal cord at concentration of 1.0 uM.
[2] = tested on: muscarinic acetylcholine receptor (Rattus norvegicus); test: Antagonistic activity against Carbachol receptor in rat spinal cord at concentration of 5.0 uM.
[3] = tested on: muscarinic acetylcholine receptor (Rattus norvegicus); test: Antagonistic activity against Carbachol receptor in rat spinal cord at concentration of 50 uM.

SMILES	Change in amplitude response [1] [%]	Change in amplitude response [2] [%]	Change in amplitude response [3] [%]
COC(=O)[C@@H](CCSC)NC(=O)[C@@H](CC(C)C)SCCNC(=O)[C@@H](Cc1ccccc1)NC(=O)[C@H](Cc1ccccc1)NC(=O)[C@H](CCC(N)=O)NC(=O)[C@H](CCC(N)=O)NC(=O)[C@H]1CCCN1C(=O)[C@H](CCCCNC(=O)OCc1ccccc1)NC(=O)[C@H]1CCCN1C(=O)[C@H](CCCN=C(N)N)NC(=O)OCc1ccccc1	-33	-46	
COC(=O)[C@@H](CCSC)NC(=O)[C@H](CC(C)C)SCCNC(=O)[C@@H](Cc1ccccc1)NC(=O)[C@H](Cc1ccccc1)NC(=O)[C@H](CCC(N)=O)NC(=O)[C@H](CCC(N)=O)NC(=O)[C@H]1CCCN1C(=O)[C@H](CCCCNC(=O)OCc1ccccc1)NC(=O)[C@H]1CCCN1C(=O)[C@H](CCCN=C(N)N)NC(=O)OCc1ccccc1			-50
